# According to PubChem BioAssay AID493012 (Sanford-Burnham Center for Chemical Genomics, 2011):
# Protein sequences, listed by entry. Tags and fused reporters are not part of them.
# UniProt Q9HC16, whole entry: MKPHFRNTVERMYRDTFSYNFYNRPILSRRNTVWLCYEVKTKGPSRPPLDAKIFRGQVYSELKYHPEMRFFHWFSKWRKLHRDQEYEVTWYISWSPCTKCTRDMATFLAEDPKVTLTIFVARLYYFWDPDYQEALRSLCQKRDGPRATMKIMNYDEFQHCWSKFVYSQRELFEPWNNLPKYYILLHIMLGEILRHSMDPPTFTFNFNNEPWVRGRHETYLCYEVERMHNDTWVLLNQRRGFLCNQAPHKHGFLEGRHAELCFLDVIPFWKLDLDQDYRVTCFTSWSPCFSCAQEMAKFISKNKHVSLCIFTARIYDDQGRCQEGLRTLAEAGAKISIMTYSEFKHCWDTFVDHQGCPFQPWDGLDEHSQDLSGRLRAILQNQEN
# The list shows a part of the results, in another mix than the full data. Calls of active or inactive are those of the source.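 How the source made its calls: active means inhibition of at least 40% at 20 µM, with no more than 30% in the related APOBEC3A deaminase screen; inactive means the rest.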
# Target: DNA dC->dU-editing enzyme APOBEC-3G (Homo sapiens) (UniProt Q9HC16)
# Assay: inhibition of human A3G ssDNA deamination – biochemical, fluorescence, single-stranded DNA substrate, uHTS, primary screen (AID 493012);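 further: plate controls were DMSO wells with A3G for no effect and wells lacking A3G enzyme for full effect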
# Details: recombinant A3G, ssDNA deamination FAM/TAMRA fluorescence; at 20 µM; stronger effect = higher value
row,SMILES,inhibition
1,CCC(=O)N(c1ccccc1)C1(COC)CCN(CCn2nnn(CC)c2=O)CC1,inactive: -1.87%
2,CCC(=O)N(c1ccccc1)C1(COC)CCN(CCc2cccs2)CC1,inactive: -7.47%
